This test addresses Mucin 17 (Muc17) on AsPc1 pancreatic cancer cells (human, UniProt Q685J3 26-4493). Description: flow cytometry on AsPc1 cells, FITC anti-human IgG detection. Background: Flow cytometry measures light scatter and fluorescence of single cells or particles in a stream.

B1: chi.MQ128 (anti-Muc17 mouse-human chimeric antibody MQ128) (antibody, V domains shown)
VH: QVQLQQSGAELVRPGSSAKISCKASGYEFSSHWMNWVKQRPGQGLEWIGQIYPGDGDINYNGKFKGKATLTADKSSSTVYMQLSSLTSEDSAVYFCARHYNYAMDYWGQGTSVTVSS
VL: QIVLTQSPAIMSASPGEKVTISCSASSSVSYMCWYQQKPGSSPKPWIYRTSNLASGVPARFSGSGSGTSYSLTISSMEAEDAATYYCQQFHSYPRTFGGGTKLEIKR
On to B1, for which the binding result was “binds”.

(Values after patent publication US20100240872A1 (FORERUNNER PHARMA RESEARCH, published 2010).)
